Values quoted from earlier work as cited in patent US8986954B2, “DNA encoding function modifying Nav1.7 antibodies” (UCB Pharma S.A., priority 2009, dated 2015).

Sequences of proteins named here, by UniProt entry; tags and fusion partners are left off.
UniProt Q15858, whole entry: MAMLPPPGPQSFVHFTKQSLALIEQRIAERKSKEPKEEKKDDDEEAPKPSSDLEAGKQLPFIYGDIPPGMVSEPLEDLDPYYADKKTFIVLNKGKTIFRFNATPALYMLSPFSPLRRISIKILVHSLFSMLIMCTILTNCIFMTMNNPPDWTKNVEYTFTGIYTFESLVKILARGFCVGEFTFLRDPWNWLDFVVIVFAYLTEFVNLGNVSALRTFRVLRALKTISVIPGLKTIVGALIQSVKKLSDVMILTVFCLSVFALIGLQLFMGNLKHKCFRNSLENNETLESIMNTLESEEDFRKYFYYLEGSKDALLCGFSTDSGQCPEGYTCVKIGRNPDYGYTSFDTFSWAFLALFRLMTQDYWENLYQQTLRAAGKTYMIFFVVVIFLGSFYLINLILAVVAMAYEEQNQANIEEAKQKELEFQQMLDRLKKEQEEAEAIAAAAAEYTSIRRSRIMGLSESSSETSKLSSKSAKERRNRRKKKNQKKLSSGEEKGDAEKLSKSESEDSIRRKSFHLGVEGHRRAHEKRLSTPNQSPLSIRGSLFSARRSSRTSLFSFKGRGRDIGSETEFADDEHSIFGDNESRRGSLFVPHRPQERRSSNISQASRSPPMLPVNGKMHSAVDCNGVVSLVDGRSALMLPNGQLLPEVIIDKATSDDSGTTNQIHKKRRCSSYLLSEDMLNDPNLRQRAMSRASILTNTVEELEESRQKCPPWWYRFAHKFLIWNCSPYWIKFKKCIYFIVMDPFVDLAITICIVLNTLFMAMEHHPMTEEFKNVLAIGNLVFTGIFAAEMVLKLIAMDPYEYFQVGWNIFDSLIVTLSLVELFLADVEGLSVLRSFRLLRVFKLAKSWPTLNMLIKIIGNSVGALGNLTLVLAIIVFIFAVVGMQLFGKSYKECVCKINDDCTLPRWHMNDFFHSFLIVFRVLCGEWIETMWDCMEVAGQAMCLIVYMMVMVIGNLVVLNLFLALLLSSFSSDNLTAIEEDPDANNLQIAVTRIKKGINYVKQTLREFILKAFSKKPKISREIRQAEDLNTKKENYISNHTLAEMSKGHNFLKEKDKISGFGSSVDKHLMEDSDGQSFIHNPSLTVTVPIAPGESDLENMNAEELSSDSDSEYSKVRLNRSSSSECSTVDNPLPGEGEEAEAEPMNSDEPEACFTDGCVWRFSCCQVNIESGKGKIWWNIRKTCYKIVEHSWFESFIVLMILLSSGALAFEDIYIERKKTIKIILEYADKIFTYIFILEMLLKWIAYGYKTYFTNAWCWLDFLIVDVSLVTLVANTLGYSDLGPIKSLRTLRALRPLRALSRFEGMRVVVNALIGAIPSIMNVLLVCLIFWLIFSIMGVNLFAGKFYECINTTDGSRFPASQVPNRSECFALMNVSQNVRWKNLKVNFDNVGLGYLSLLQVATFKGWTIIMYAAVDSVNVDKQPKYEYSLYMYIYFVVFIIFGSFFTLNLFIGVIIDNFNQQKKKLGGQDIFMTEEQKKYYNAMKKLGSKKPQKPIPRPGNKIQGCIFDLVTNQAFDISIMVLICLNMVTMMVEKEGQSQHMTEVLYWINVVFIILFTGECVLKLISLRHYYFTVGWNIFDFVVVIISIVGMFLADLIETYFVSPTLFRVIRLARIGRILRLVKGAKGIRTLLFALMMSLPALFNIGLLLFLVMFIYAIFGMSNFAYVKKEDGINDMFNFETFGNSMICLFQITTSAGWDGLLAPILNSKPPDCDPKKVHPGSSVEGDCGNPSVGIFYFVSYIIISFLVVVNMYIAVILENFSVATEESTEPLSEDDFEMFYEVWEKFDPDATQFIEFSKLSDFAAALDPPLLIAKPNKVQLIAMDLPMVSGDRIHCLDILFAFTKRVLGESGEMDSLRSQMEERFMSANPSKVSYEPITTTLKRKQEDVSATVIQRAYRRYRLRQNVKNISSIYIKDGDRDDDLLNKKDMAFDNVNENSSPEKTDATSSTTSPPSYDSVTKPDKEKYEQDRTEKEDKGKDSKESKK

Target: Nav1.7 (Homo sapiens, UniProt Q15858)
Conditions: Mol Pharmacol 74:1476-1484, 2008; cited from earlier work

ProTxII
selectivity of Nav1.7 inhibition: selectively inhibit Nav1.7
